Experimental findings from patent US20050227220A1, “Compositions and Methods for Evaluating and Designing Nuclear Receptor Ligands that Modulate Co-Regulator Affinity” (priority 2002, published 2005) are described below.

The chains behind the UniProt entries cited, without tags or fusion partners. Residues count along the entry.
UniProt P37231, 234-505: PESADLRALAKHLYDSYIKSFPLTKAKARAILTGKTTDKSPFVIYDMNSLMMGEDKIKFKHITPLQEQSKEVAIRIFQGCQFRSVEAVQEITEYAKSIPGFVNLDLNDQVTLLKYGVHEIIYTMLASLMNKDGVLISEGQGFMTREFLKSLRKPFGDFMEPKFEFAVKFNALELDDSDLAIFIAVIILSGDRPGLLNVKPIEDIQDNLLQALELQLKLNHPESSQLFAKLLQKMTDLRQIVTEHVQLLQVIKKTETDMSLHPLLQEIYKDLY

The target in assay [1] is PPARγ ligand binding domain (Homo sapiens, UniProt P37231). The experiment in a line: Surface plasmon resonance: effect of compounds on co-repressor peptide binding to PPAR LBD. The following applies: SPR equilibrium response, immobilized biotinylated peptides.
A further assay has as its target T1, PPARγ LBD (Homo sapiens, UniProt P37231).
T1 construct: made in house; host or cells: bacterial BL21-DE3, vector pRSETA
The experiment in a line: FRET assay: ligand effect on CBP fragment / NCoR ID-C binding to PPAR LBD. It counts as biochemical. The following applies: 10 nM PPAR LBD, CBP (57-454). From the text: The experimentally determined α value is the ratio of cofactor affinities in the presence and absence of a saturating concentration of ligand. This analysis permits a direct comparison of the effects of compounds, independent of cofactor concentration and differences in coregulator affinity for the individual receptors. […] 98(9): p.
The effects of the coregulator environment on the apparent affinities and selectivities of various ligands were than examined. Experimentally determined pKs and the α values derived from the FRET assay were used to calculate the apparent affinity of the ligand for the receptor/cofactor complex (i.e. K/α).
FIG. 5 illustrates the effect of ligands on coactivator and corepressor binding to PPAR subtypes determined by FRET.

Turning to `CN(CCOc1ccc(C[C@H](Nc2ccccc2C(=O)c2ccccc2)C(=O)O)cc1)c1ccccn1` [GW1929], in assay [1], the “effect on binding of PPARγ LBD to the NCOR- and SMRT-derived co-repressor peptides” value was “decreased the binding”. In addition, at PPARγ LBD, the “effect on apparent affinity of PPARγ for the co-activator fragment from CBP” value was “increased the apparent affinity”.
